Measured values taken from PubChem BioAssay (NCI).
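Grown in 96-well plates, cells were treated for 48 hours with each compound at five concentrations. Insufficient inhibition: endpoint recorded as highest concentration tested. GI50: concentration for 50% inhibition of growth.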

What was measured:
Assay in all cases: NCI-60 cell line screen, 48 h; in the data active means GI50 below about 0.43 µM; inactive means the rest
HT29 colon = system: HT29 colon
SR leukemia = system: SR leukemia
CCRF-CEM leukemia = system: CCRF-CEM leukemia
SW-620 colon = system: SW-620 colon
HOP-92 NSCLC = system: HOP-92 NSCLC
EKVX NSCLC = system: EKVX NSCLC
A498 renal = system: A498 renal
KM12 colon = system: KM12 colon
T-47D breast = system: T-47D breast
NCI-H460 lung = system: NCI-H460 lung
ACHN renal = system: ACHN renal
MDA-MB-435 = system: MDA-MB-435
HCT-116 colon = system: HCT-116 colon
MALME-3M melanoma = system: MALME-3M melanoma
SK-MEL-28 melanoma = system: SK-MEL-28 melanoma
SNB-75 CNS = system: SNB-75 CNS
NCI-H322M lung = system: NCI-H322M lung
MDA-MB-231 breast = system: MDA-MB-231 breast
SF-295 CNS = system: SF-295 CNS
DU-145 prostate = system: DU-145 prostate
U251 CNS = system: U251 CNS
SK-MEL-5 melanoma = system: SK-MEL-5 melanoma
HCT-15 colon = system: HCT-15 colon
NCI/ADR-RES ovarian = system: NCI/ADR-RES ovarian
UACC-257 melanoma = system: UACC-257 melanoma
M14 melanoma = system: M14 melanoma
MCF7 breast = system: MCF7 breast
SK-MEL-2 melanoma = system: SK-MEL-2 melanoma
UACC-62 melanoma = system: UACC-62 melanoma
CAKI-1 renal = system: CAKI-1 renal
UO-31 renal = system: UO-31 renal
TK-10 renal = system: TK-10 renal
SF-268 CNS = system: SF-268 CNS
OVCAR-4 ovarian = system: OVCAR-4 ovarian
HOP-62 NSCLC = system: HOP-62 NSCLC
MOLT-4 leukemia = system: MOLT-4 leukemia
LOX IMVI melanoma = system: LOX IMVI melanoma
BT-549 breast = system: BT-549 breast
OVCAR-8 ovarian = system: OVCAR-8 ovarian
SK-OV-3 ovarian = system: SK-OV-3 ovarian
SNB-19 CNS = system: SNB-19 CNS
OVCAR-3 ovarian = system: OVCAR-3 ovarian
NCI-H23 lung = system: NCI-H23 lung
RPMI-8226 leukemia = system: RPMI-8226 leukemia
K-562 leukemia = system: K-562 leukemia
IGROV1 ovarian = system: IGROV1 ovarian
PC-3 prostate = system: PC-3 prostate
MDA-N = system: MDA-N
786-0 renal = system: 786-0 renal
COLO 205 colon = system: COLO 205 colon
A549 NSCLC = system: A549 NSCLC
SN12C renal = system: SN12C renal
RXF 393 renal = system: RXF 393 renal
OVCAR-5 ovarian = system: OVCAR-5 ovarian

Measured: GI50

CN(C(=O)COc1ccc(Cl)c(Cl)c1)C1CCCC[C@@H]1N1CCCC1 (some centres undefined)
inactive: HT29 colon 36.2 µM | SR leukemia 64.5 µM | CCRF-CEM leukemia > 100 µM | SW-620 colon > 100 µM | HOP-92 NSCLC 37.6 µM | EKVX NSCLC > 100 µM | A498 renal 50.4 µM | KM12 colon > 100 µM | T-47D breast 50.8 µM | NCI-H460 lung 85.7 µM | ACHN renal > 100 µM | MDA-MB-435 = > 100 µM | HCT-116 colon 62 µM | MALME-3M melanoma > 100 µM | SK-MEL-28 melanoma 77.5 µM | SNB-75 CNS 57.7 µM | NCI-H322M lung > 100 µM | MDA-MB-231 breast 63.7 µM | SF-295 CNS > 100 µM | DU-145 prostate > 100 µM | U251 CNS 73 µM | SK-MEL-5 melanoma 14.9 µM | HCT-15 colon > 100 µM | NCI/ADR-RES ovarian 93.2 µM | UACC-257 melanoma 57.7 µM | M14 melanoma 16.4 µM | MCF7 breast 50.5 µM | SK-MEL-2 melanoma > 100 µM | UACC-62 melanoma 43.5 µM | CAKI-1 renal 69.2 µM | UO-31 renal 27.7 µM | TK-10 renal > 100 µM | SF-268 CNS 45.5 µM | OVCAR-4 ovarian > 100 µM | HOP-62 NSCLC > 100 µM | MOLT-4 leukemia 31.8 µM | LOX IMVI melanoma 60.5 µM | BT-549 breast 44.9 µM | OVCAR-8 ovarian > 100 µM | SK-OV-3 ovarian > 100 µM | SNB-19 CNS > 100 µM | OVCAR-3 ovarian > 100 µM | NCI-H23 lung > 100 µM | RPMI-8226 leukemia 46.8 µM | K-562 leukemia 51.1 µM | IGROV1 ovarian > 100 µM | PC-3 prostate 43.7 µM | MDA-N 87.7 µM | 786-0 renal 73.9 µM | COLO 205 colon 35.7 µM | A549 NSCLC 99.5 µM | SN12C renal > 100 µM | RXF 393 renal 43.3 µM | OVCAR-5 ovarian 79.3 µM
